Assay results reported in patent publication US20050250137A1, “Molecular targets of cancer and aging” (priority 2002, published 2005).
“And” between values parts separate entries of the source, which are not always exact repeats. Equal values may be shown once. Read-outs that look alike come from different tables or passages of the source.

Experiments:
MDAH087-10 cells [1] = details: average fold change Q-RT-PCR
MDAH087-1 cells [2] = details: for 659_at 1-5aza Ave Signal Log / ALDH1A3 36686_at 1-5aza Ave Signal Log / KIAA1750 32730_at 1-5aza Ave Signal Log: treated vs untreated immortal MDAH087-1
MDAH087-1 cells [3] = test: Western blot protein expression after 5-aza-dC, MDAH087-1; assay type: cell-based, human
MDAH087-N cells [4] = tested on: MDAH087-N cells
MDAH087-10 cells [5] = test: Western blot protein expression after 5-aza-dC, MDAH087-10; assay type: cell-based, human
MDAH087-N cells [6] = test: Western blot protein expression after 5-aza-dC, MDAH087-N; assay type: cell-based, human
MDAH087-N cells [7] = details: average fold change Q-RT-PCR
MDAH087-1 cells [8] = details: average fold change Q-RT-PCR
[9] = MDAH087-1, average fold change microarray
[10] = Table 9 microarray, MDAH087-1, 5-aza-dC-treated vs untreated immortal cells
[11] = MDAH087-1 treated with 5-aza-dC
[12] = MDAH087-N, average fold change microarray
[13] = Table 9 microarray, MDAH087-N, 5-aza-dC-treated vs untreated immortal cells
[14] = fold cell, treated vs untreated immortal MDAH087-N
[15] = log2 cell, treated vs untreated immortal MDAH087-N
[16] = MDAH087-10 treated with 5-aza-dC
[17] = MDAH087-N treated with 5-aza-dC

SMILES: Nc1ncn([C@H]2C[C@H](O)[C@@H](CO)O2)c(=O)n1 [5-aza-dC, 5-aza-2′-deoxycytidine]
- ALDH1A3 expression, IM vs 5-aza-dC, QP (MDAH087-10 cells [1]): 9.71 fold
- CREG expression, IM vs 5-aza-dC, QP (MDAH087-10 cells [1]): 4.49 fold
- HSPA2 expression, IM vs 5-aza-dC, QP (MDAH087-10 cells [1]): 3.65 fold
- IGFBP3 expression, IM vs 5-aza-dC, QP (MDAH087-10 cells [1]): −1.4 fold and −1.40 fold
- IGFBP4 expression, IM vs 5-aza-dC, QP (MDAH087-10 cells [1]): 3.72 fold
- IGFBPrP1 expression, IM vs 5-aza-dC, QP (MDAH087-10 cells [1]): 4.10 fold
- KIAA1750 expression, IM vs 5-aza-dC, QP (MDAH087-10 cells [1]): 31.41 fold
- OPTN expression, IM vs 5-aza-dC, QP (MDAH087-10 cells [1]): 431.43 fold
- SERPINB2 expression, IM vs 5-aza-dC, QP (MDAH087-10 cells [1]): 58.24 fold
- STAT1α expression, IM vs 5-aza-dC, QP (MDAH087-10 cells [1]): 3.23 fold
- TNFAIP2 expression, IM vs 5-aza-dC, QP (MDAH087-10 cells [1]): 3.72 fold
- CREG expression, IM vs 5-aza-dC, MA (MDAH087-1 cells [2]; [9]): 4.10 fold
- KIAA1750 expression, IM vs 5-aza-dC, MA (MDAH087-1 cells [2]; [9]): 3.28 fold
- SERPINB2 expression, IM vs 5-aza-dC, MA (MDAH087-1 cells [2]; [9]): 8.8 fold
- STAT1α expression, IM vs 5-aza-dC, MA (MDAH087-1 cells [2]; [9]): 1.05 fold
- TNFAIP2 expression, IM vs 5-aza-dC, MA (MDAH087-1 cells [2]; [9]): 3.08 fold
- CREG expression, 5A (MDAH087-1 cells [2]; [10]): 4.1 fold
- HTATIP2 expression, 5A (MDAH087-1 cells [2]; [10]): 2.0 fold
- SERPINB2 expression, 5A (MDAH087-1 cells [2]; [10]): 8.8 fold
- 659_at 1-5aza Ave Signal Log (MDAH087-1 cells [2]; fold cell): 4.69
- ALDH1A3 36686_at 1-5aza Ave Signal Log (MDAH087-1 cells [2]; fold cell): 2.29
- KIAA1750 32730_at 1-5aza Ave Signal Log (MDAH087-1 cells [2]; fold cell): 3.28
- 659_at 1-5aza Ave Signal Log (MDAH087-1 cells [2]; log2 cell): 2.29
- ALDH1A3 36686_at 1-5aza Ave Signal Log (MDAH087-1 cells [2]; log2 cell): 1.19
- KIAA1750 32730_at 1-5aza Ave Signal Log (MDAH087-1 cells [2]; log2 cell): 1.71
- p16^INK4a protein expression (MDAH087-1 cells [3]; [11]): but not expression of p16^INK4a
- p21^CIP1/WAF1 protein expression (MDAH087-1 cells [3]; [11]): induced expression of p21^CIP1/WAF1
- IGFBP4 protein (MDAH087-1 cells [3]; after 5-aza-dC treatment, MDAH087-1): slight induction
- STAT1α protein levels (MDAH087-1 cells [3]; untreated vs 5-aza-dC treated immortal MDAH087 cell lines (MDAH087-1)): nor was there found a difference in levels
- ALDH1A3 expression, IM vs 5-aza-dC, MA (MDAH087-N cells [4]; [12]): 3.2 fold
- CLTB expression, IM vs 5-aza-dC, MA (MDAH087-N cells [4]; [12]): 2.4 fold
- CREG expression, IM vs 5-aza-dC, MA (MDAH087-N cells [4]; [12]): 1.55 fold
- IGFBP4 expression, IM vs 5-aza-dC, MA (MDAH087-N cells [4]; [12]): 1.84 fold
- IGFBPrP1 expression, IM vs 5-aza-dC, MA (MDAH087-N cells [4]; [12]): 3.02 fold
- SERPINB2 expression, IM vs 5-aza-dC, MA (MDAH087-N cells [4]; [12]): 10.7 fold
- STAT1α expression, IM vs 5-aza-dC, MA (MDAH087-N cells [4]; [12]): 1.99 fold
- TNFAIP2 expression, IM vs 5-aza-dC, MA (MDAH087-N cells [4]; [12]): 5.41 fold
- ALDH1A3 expression, 5A (MDAH087-N cells [4]; [13]): 3.2 fold
- CLTB expression, 5A (MDAH087-N cells [4]; [13]): 2.4 fold
- IGFBPrP1 expression, 5A (MDAH087-N cells [4]; [13]): 3.0 fold
- SERPINB2 expression, 5A (MDAH087-N cells [4]; [13]): 10.7 fold
- TNFAIP2 expression, 5A (MDAH087-N cells [4]; [13]): 5.4 fold
- 659_at N-5aza Ave Signal Log (MDAH087-N cells [4]; [14]): 7.98
- ALDH1A3 36686_at N-5aza Ave Signal Log (MDAH087-N cells [4]; [14]): 3.24
- KIAA1750 32730_at N-5aza Ave Signal Log (MDAH087-N cells [4]; [14]): 5.10
- 659_at N-5aza Ave Signal Log (MDAH087-N cells [4]; [15]): 3.00
- KIAA1750 32730_at N-5aza Ave Signal Log (MDAH087-N cells [4]; [15]): 2.35
- p16^INK4a protein expression (MDAH087-10 cells [5]; [16]): but not expression of p16^INK4a
- p21^CIP1/WAF1 protein expression (MDAH087-10 cells [5]; [16]): induced expression of p21^CIP1/WAF1
- IGFBP4 protein (MDAH087-10 cells [5]; after 5-aza-dC treatment, MDAH087-10): no induction
- STAT1α protein levels (MDAH087-10 cells [5]; untreated vs 5-aza-dC treated immortal MDAH087 cell lines (MDAH087-10)): nor was there found a difference in levels
- p16^INK4a protein expression (MDAH087-N cells [6]; [17]): induced protein expression of p16^INK4a
- p21^CIP1/WAF1 protein expression (MDAH087-N cells [6]; [17]): but not of p21^CIP1/WAF1
- IGFBP4 protein (MDAH087-N cells [6]; after 5-aza-dC treatment, MDAH087-N): slight induction
- STAT1α protein levels (MDAH087-N cells [6]; untreated vs 5-aza-dC treated immortal MDAH087 cell lines (MDAH087-N)): nor was there found a difference in levels
- ALDH1A3 expression, IM vs 5-aza-dC, QP (MDAH087-N cells [7]): 11.51 fold
- CLTB expression, IM vs 5-aza-dC, QP (MDAH087-N cells [7]): 7.62 fold
- HSPA2 expression, IM vs 5-aza-dC, QP (MDAH087-N cells [7]): 46.6 fold
- IGFBP3 expression, IM vs 5-aza-dC, QP (MDAH087-N cells [7]): 2.82 fold
- IGFBP4 expression, IM vs 5-aza-dC, QP (MDAH087-N cells [7]): 4.82 fold
- IGFBPrP1 expression, IM vs 5-aza-dC, QP (MDAH087-N cells [7]): 5.34 fold
- KIAA1750 expression, IM vs 5-aza-dC, QP (MDAH087-N cells [7]): 28.43 fold
- OPTN expression, IM vs 5-aza-dC, QP (MDAH087-N cells [7]): 6.36 fold
- SERPINB2 expression, IM vs 5-aza-dC, QP (MDAH087-N cells [7]): 66.72 fold
- STAT1α expression, IM vs 5-aza-dC, QP (MDAH087-N cells [7]): 9.05 fold
- TNFAIP2 expression, IM vs 5-aza-dC, QP (MDAH087-N cells [7]): 39.56 fold
- ALDH1A3 expression, IM vs 5-aza-dC, QP (MDAH087-1 cells [8]): 69.28 fold
- CLTB expression, IM vs 5-aza-dC, QP (MDAH087-1 cells [8]): 3.08 fold
- CREG expression, IM vs 5-aza-dC, QP (MDAH087-1 cells [8]): 4.93 fold
- HSPA2 expression, IM vs 5-aza-dC, QP (MDAH087-1 cells [8]): 24.43 fold
- IGFBP3 expression, IM vs 5-aza-dC, QP (MDAH087-1 cells [8]): −2.61 fold
- IGFBP4 expression, IM vs 5-aza-dC, QP (MDAH087-1 cells [8]): −0.03 fold
- KIAA1750 expression, IM vs 5-aza-dC, QP (MDAH087-1 cells [8]): 5.23 fold
- OPTN expression, IM vs 5-aza-dC, QP (MDAH087-1 cells [8]): 30.54 fold
- SERPINB2 expression, IM vs 5-aza-dC, QP (MDAH087-1 cells [8]): 22.63 fold
- STAT1α expression, IM vs 5-aza-dC, QP (MDAH087-1 cells [8]): 1.56 fold
- TNFAIP2 expression, IM vs 5-aza-dC, QP (MDAH087-1 cells [8]): 7.28 fold
